Only a part is listed here, and it is no random draw. Activity calls are given as the source filed them.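 The calls were made as follows: active = luminescence in either replicate above plate mean of wells with a partly effective reference agonist dose plus 3 SD; inactive = the rest.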
Test: isoproterenol-driven CRE-luciferase response modulation in HEK293 cells, confirmation, counter-screen for D1 allosteric modulator project, cell-based, secondary assay 2, luminescence (AID 647);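 also: isoproterenol raises cAMP through native beta-adrenoceptor Gs so signal bypasses D1; raw luminescence counts from the Envision reader with one value per duplicate well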
Settings: isoproterenol EC30 counter-screen, at 10 µM, stronger effect = higher value

Row | Structure (SMILES) | luminescence
1 | CCOc1ncccc1C(=O)NCC1(N2CCOCC2)CCCCC1 | active: 4200

Reference: PubChem BioAssay AID647 (Vanderbilt High Throughput Screening Facility, 2007)
